Consider one compound from ChEMBL document CHEMBL1157138, “A binary QSAR model for classification of hERG potassium channel blockers” (Bioorg Med Chem, 2008).

Sequences of proteins named here, by UniProt entry; tags and fusion partners are left off. A change or cut given only in a name is not applied to a line headed by its entry.
UniProt Q12809: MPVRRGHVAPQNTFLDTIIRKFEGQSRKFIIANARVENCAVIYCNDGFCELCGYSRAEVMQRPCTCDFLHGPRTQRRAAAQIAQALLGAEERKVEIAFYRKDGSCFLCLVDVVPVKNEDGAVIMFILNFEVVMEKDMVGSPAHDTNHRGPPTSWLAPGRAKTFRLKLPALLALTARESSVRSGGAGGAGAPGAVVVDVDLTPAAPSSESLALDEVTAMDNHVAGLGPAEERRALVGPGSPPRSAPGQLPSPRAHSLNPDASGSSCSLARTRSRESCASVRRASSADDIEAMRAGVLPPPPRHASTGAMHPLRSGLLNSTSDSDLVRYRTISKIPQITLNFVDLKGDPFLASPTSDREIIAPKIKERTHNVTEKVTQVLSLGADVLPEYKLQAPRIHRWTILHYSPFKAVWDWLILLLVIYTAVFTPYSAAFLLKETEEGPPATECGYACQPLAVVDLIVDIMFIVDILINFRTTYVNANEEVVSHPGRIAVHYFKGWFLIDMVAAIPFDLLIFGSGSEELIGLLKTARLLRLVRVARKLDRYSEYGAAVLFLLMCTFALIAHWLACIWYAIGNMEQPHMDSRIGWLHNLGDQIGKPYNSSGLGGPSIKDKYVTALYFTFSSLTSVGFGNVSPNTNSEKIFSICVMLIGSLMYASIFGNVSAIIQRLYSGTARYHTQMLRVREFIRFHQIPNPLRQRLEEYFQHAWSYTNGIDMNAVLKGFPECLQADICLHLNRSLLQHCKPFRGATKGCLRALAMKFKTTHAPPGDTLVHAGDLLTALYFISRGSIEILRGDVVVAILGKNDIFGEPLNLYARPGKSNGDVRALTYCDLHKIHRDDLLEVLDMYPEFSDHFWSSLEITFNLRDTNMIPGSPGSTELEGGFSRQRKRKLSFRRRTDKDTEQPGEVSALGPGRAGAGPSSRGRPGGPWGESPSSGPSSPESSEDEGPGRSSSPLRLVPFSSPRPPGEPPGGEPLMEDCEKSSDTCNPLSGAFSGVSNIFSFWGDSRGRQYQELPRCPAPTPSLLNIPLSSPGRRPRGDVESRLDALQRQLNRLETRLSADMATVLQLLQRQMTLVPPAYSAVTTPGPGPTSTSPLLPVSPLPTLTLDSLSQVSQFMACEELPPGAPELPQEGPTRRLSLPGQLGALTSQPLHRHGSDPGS

This assay has as its target Voltage-gated inwardly rectifying potassium channel KCNH2 (Homo sapiens, UniProt Q12809). The assay is described as follows: Inhibition of human ERG potassium channel.

SMILES strings stand for the structures. pIC50: −log10 of the molar value.

Compound `Cc1nccn1C[C@H]1CCc2c(c3ccccc3n2C)C1=O` [(R)-ONDANSETRON] had a pIC50 of 6.09.

The term pIC50 denotes the negative decadic logarithm of the IC50, by convention in mol/L.
